In patent US8980581B2, “Site-specific incorporation of amino acids into molecules” (California Institute of Technology, priority 2006, dated 2015) one finds Km and kcat data, which are given here for 10 compounds.

Sequences of proteins named here, by UniProt entry; tags and fusion partners are left off.
UniProt P15625, whole entry T415G: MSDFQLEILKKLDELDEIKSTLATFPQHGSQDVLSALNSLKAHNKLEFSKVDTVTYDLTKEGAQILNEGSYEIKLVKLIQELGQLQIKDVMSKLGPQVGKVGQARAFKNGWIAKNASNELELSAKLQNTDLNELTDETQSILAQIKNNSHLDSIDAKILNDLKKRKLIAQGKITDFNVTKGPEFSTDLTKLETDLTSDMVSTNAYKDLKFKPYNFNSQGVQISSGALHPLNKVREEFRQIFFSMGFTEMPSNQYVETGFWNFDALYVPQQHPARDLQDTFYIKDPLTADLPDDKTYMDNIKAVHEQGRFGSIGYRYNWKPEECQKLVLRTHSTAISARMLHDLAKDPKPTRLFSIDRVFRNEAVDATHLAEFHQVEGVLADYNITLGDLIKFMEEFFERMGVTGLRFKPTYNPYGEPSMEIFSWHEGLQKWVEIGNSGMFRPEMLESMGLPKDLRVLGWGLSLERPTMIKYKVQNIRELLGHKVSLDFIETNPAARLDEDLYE
UniProt P15624, whole entry partner: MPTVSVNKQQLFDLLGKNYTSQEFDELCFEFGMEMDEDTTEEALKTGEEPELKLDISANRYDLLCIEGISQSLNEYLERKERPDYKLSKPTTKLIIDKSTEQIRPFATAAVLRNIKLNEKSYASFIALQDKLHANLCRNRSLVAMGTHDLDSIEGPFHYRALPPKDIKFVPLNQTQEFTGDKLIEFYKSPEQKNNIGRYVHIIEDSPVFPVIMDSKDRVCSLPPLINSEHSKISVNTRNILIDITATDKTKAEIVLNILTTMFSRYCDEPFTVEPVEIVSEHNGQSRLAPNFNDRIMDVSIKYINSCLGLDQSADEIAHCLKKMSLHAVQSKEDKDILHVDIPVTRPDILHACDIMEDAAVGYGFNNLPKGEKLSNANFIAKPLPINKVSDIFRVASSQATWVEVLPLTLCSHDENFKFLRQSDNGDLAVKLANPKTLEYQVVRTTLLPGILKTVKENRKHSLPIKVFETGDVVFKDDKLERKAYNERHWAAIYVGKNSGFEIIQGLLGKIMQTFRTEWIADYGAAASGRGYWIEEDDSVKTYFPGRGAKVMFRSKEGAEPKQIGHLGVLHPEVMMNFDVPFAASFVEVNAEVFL

The test deals with external mutant yeast PheRS T415G (Saccharomyces cerevisiae, UniProt P15625, T415G). In words: ATP-PPi exchange of exemplary amino acids (1-11) by external mutant yeast PheRS, Example 10, Table I. The class given is biochemical. The settings on record: enzyme T415G. How it is done: The amino acid-dependent ATP-PP; exchange reaction was used to evaluate the activation of amino acid analogs by yPheRS as described in the above Examples. Briefly, a 200 microliter aliquot of reaction buffer contains 50 mM HEPES (pH 7.6), 20 nM MgCl2, 1 mM DTT, 2 mM ATP, and 2 mM ^32P-pyrophosphate (PPi) with specific activity of 10-50 Ci/mol. Depending on the activity of analogs by the synthetase, the amino acid concentration varied from 10 microM to 2.5 mM and enzyme concentration varied from 10 nM to 100 nM. Aliquots of 20 microliters were removed from the reaction solution at various time points and quenched into 500 microliters of buffer solution containing 200 mN NaPPi, 7% w/v HclO4, and 3% w/v activated charcoal. The charcoal was spun down and washed twice with 500 microliters of 10 mM NaPP; and 0.5% HClO4 solution. The radio-labeled ATP absorbed into the charcoal was quantified via liquid scintillation methods. The specificity constants were calculated by non linear regression fit for the data to a Michaelis Menten model.
The results of the kinetic parameters are shown in Table I. Substitution at the indole ring (especially at the 6th position) was highly favorable for some analogs (8-10).
Where the amino acids are indicated as in FIG. 2.
As to `[N-]=[N+]=Nc1ccc(CC(N)C(=O)O)cc1` (centres unmarked), the Km (usually the concentration of substrate that gives half-maximal velocity) was determined as 11 µM and the kcat (commonly the maximal rate divided by the concentration of active sites) was 0.05 ± 0.002 s⁻¹.

As for `NC(Cc1ccc(O)cc1)C(=O)O` (centres unmarked), the Km was 757 µM and the kcat turned out to be 0.4 ± 0.003 s⁻¹.

With `NC(Cc1c[nH]c2ccccc12)C(=O)O` (centres unmarked), the Km stood at 20 µM and the kcat was determined as 0.30 ± 0.006 s⁻¹.

With `NC(Cc1ccc(Br)cc1)C(=O)O` (centres unmarked), the Michaelis-Menten constant (Km) came to 22 µM and the kcat was 0.03 ± 0.001 s⁻¹.

For the compound `NC(Cc1ccc2ccccc2c1)C(=O)O` (centres unmarked), the Km turned out to be 27 µM and the kcat was found to be 0.04 ± 0.001 s⁻¹.

As for `NC(Cc1c[nH]c2cc(Cl)ccc12)C(=O)O` (centres unmarked), the Km is 20 µM and the kcat amounted to 0.20 ± 0.018 s⁻¹.

For `NC(Cc1ccc(I)cc1)C(=O)O` (centres unmarked), the Km is 12 µM and the kcat amounted to 0.05 ± 0.001 s⁻¹.

Regarding `NC(Cc1c[nH]c2ccc(Br)cc12)C(=O)O` (centres unmarked), the Km came to 31 µM and the catalytic constant (kcat) is 0.06 ± 0.005 s⁻¹.

On to `NC(Cc1c[nH]c2cc(Br)ccc12)C(=O)O` (centres unmarked), for which the Km is 8 µM and the kcat amounted to 0.55 ± 0.097 s⁻¹.

Turning to `NC(Cc1cccc2ccccc12)C(=O)O` (centres unmarked), the Km was 94 µM and the kcat was determined as 0.05 ± 0.006 s⁻¹.
